Legend:
Prothrombin [1] = target: T1, Prothrombin (Homo sapiens, UniProt P00734); assay: Inhibition of thrombin-catalyzed hydrolysis of a standard substrate
Prothrombin [2] = target: T1, Prothrombin; assay: Binding affinity towards thrombin was determined

NC1CCC(CNC(=O)[C@@H]2CCCN2C(=O)[C@@H](N)C2CCCCC2)CC1 (some centres not stated)
IC50 (Prothrombin [1]): 3 nM | Ki (Prothrombin [2]): 3 nM

Source: ChEMBL document CHEMBL1131597, “Discovery and development of the novel potent orally active thrombin inhibitor N-(9-hydroxy-9-fluorenecarboxy)prolyl trans-4-aminocyclohexylmethyl amide (L-372,460): coapplication of structure-based design and rapid multiple analogue synthesis on solid support” (J Med Chem, 1998)
